From PubChem BioAssay
miR-21 FLuc – miR-21 reporter, rising signal | AID 2288 | HeLa miR-21 FLuc reporter, luciferase, 48 h | 340,000 tested, under 10 active | Potency, µM (titrated, usually from 38.3 µM); active = well fitted rising curve with a large enough effect; inconclusive = small, poorly fitted or top-dose-only effect; inactive = no such curve, though single readings can be large or run the other way;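 also: miR-21 action dims this reporter so a rising signal means less miR-21 action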
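HeLa miR-21-FLuc reporter line, endogenous miR-21; 2000 cells/well in DMEM/10% FBS; compound titration up to ~40uM final, 48 h, 37 degree Celsius; luciferase detection reagent, 15 min lysis, CCD luminescence.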
TrxR1 substrate – substrates of rat thioredoxin reductase 1; O89049; 390,000 compounds, 0.01% hits; Potency, µM (doses to about 114 µM); purified TrxR1 substrate turnover, NADPH consumption readout; AID 588456; also: nearly all actives have a fitted effect of over 50% in size
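Rat TrxR1, dispensed at 90 nM, was prereduced with 400 uM NADPH (final) for 5 min at ~22 deg C, then incubated with compound 15 min before 400 uM selenite. A first-read NADPH fluorescence drop versus no-compound background flagged substrates.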
Anesthetic bind – candidate novel general anesthetic via apoferritin binding; P02791; apoferritin/1-aminoanthracene competitive binding, fluorescence; Potency, µM (titrated, usually from 77.5 µM), most hits filed as inhibitors; 350,000 compounds, 0.074% hits; AID 485281; also: nearly all actives have a fitted effect of over 20% in size
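Concentration-response curves derived by four-parameter Hill fitting of normalized fluorescence, where compounds displaced 1-AMA from 10 uM horse apoferritin following a brief 10 min room-temperature incubation; propofol titration acted as positive control.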
rTrxR1 inhibitor – blocks rat thioredoxin reductase 1; O89049; recombinant rTrxR1, NADPH fluorescence consumption, selenite substrate; Potency, µM (series often up to 114 µM), hits mostly inhibitors; 390,000 compounds, 1% hits; also: nearly all actives have a fitted effect of over 65% in size
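Rat TrxR1 (90 nM in the dispensed reagent) was pre-reduced with 400 uM NADPH for 5 min at room temperature, then incubated with compound for 15 min. After 400 uM selenite was added, NADPH fluorescence (Ex 340/Em 450 nm) was followed for 8 min.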
ClpP mod – qHTS Assay for Activators of ClpP; purified B. subtilis ClpP, FRET peptide cleavage, 20 min; Potency, µM (doses to about 57.5 µM); 340,000 compounds, 1.9% hits; AID 651965, 2013; active = well fitted falling curve with a large enough effect; inconclusive = small, poorly fitted or top-dose-only effect; inactive = no such curve, though single readings can be large or run the other way; also: the source files actives as falling curves though it sought activators and does not explain the sign; nearly all actives have a fitted effect of over 65% in size
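FRET quenching reversal measured ClpP activation: 10 microg/mL B. subtilis ClpP at pH 8 with the FRET-FV decapeptide, read at 430 nm after 320 nm excitation. The 20-min minus 0-min signal was scaled between DMSO/no-enzyme wells and ADEP (5.8 microM final).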
Each line names hits and unclear results; the compound was inactive in the other large screens; ! = repeats disagree. Compounds with a hit are over-represented: about 2.5% of the library has one in this group of screens. Unless noted, calls follow the shape of the dose curve; as a rule, active = well fitted curve in the direction sought with a large enough effect; inconclusive = small, poorly fitted or top-dose-only effect, or another doubt; inactive = no such curve, though single readings can be large; an effect the other way counts as inactive or inconclusive.

COc1ccc(-n2nnnc2/C=C\Nc2ccccc2C(=O)c2ccccc2)cc1	Anesthetic bind inconclusive
COc1ccc(-n2nnnc2/C=C/Nc2cc(C(F)(F)F)ccc2OC)cc1	ClpP mod 28µM
CN(C)CCC(=O)C(Cc1ccccc1)c1ccccc1 (stereo not drawn)	rTrxR1 inhibitor 0.25µM (no result: miR-21 FLuc, Anesthetic bind, ClpP mod)
CN(C)CCNC(=O)C(c1ccccc1)c1ccccc1	none
COc1cc(C2SC[C@H]3C(=O)N(c4ccccc4)C(=O)N23)cc(OC)c1OC (stereo partly drawn)	rTrxR1 inhibitor 79µM
COc1cc(C)c2ccccc2n1	none (no result: miR-21 FLuc, Anesthetic bind)
COc1cc(OC)c2c(OC)cccc2n1	ClpP mod 18µM
CCOc1cc(OCC)cc(C(=O)NCc2ccco2)c1	ClpP mod 14µM
CCOc1ccc(C(=O)NCc2ccco2)cc1	none
O=C(NCc1ccco1)c1ccc(COc2ccccc2Cl)cc1	Anesthetic bind inconclusive
COC(=O)c1ccccc1NC(=O)c1ccc2c(c1)C(=O)N(Cc1ccco1)C2=O	ClpP mod 28µM (no result: miR-21 FLuc, Anesthetic bind)
COc1ccccc1NC(=O)c1ccc2c(c1)C(=O)N(Cc1ccco1)C2=O	none
O=C(NCc1ccco1)c1ccc(COc2cccc3ccccc23)cc1	ClpP mod 11µM
O=C(NCc1ccco1)c1ccc2c(c1)C(=O)c1ccccc1-2	rTrxR1 inhibitor 20µM
CCN(CC)CCCOc1cc2nc(N3CCCN(C)CC3)nc(NC3CCN(C)CC3)c2cc1OC	none (no result: miR-21 FLuc, Anesthetic bind)
COc1ccc(-c2noc(CSc3nnc(C)n3-c3ccc(C)cc3)n2)cc1	none
O=C(Cn1nc(-c2ccccc2)c2cnc3ccccc3c21)Nc1ccccc1	none
Cc1ccc(Cl)cc1NC(=O)Cn1c(SCC(=O)NCc2ccccc2)nc2ccccc21	none
O=C(NCc1ccco1)c1ccc2c(c1)C(=O)N(Cc1ccccc1)C2=O	Anesthetic bind inconclusive, ClpP mod 28µM
CC(C(=O)Nc1sc2c(c1C(=O)NCc1ccco1)CCCC2)N1C(=O)c2ccccc2C1=O (stereo not drawn)	none
Cc1ccc(CNC(=O)c2c(-c3ccccc3Cl)noc2C)cc1	none
O=C(NCc1ccco1)c1cc2c(s1)CSC2	rTrxR1 inhibitor 7.9µM
O=C(CCN1C(=O)c2ccccc2C1=O)Nc1sc2c(c1C(=O)NCc1ccco1)CCCC2	Anesthetic bind inconclusive, rTrxR1 inhibitor 20µM
Cc1onc(-c2ccccc2Cl)c1C(=O)NCc1ccco1	rTrxR1 inhibitor 50µM
COc1ccc(OC)c(C2C(C(=O)Nc3ccc(C)cc3C)=C(C)Nc3c(C(=O)Nc4ccc(F)cc4)cnn32)c1 (stereo not drawn)	ClpP mod inconclusive
O=C(NCC1(c2ccccc2)CCCC1)C(=O)Nc1cccc(Br)c1	none
O=C(CNC(=O)c1ccc2c(c1)OCO2)N/N=C(Br)/C=C/c1ccccc1	Anesthetic bind 7.1µM
Cc1cc(C)n2c(Nc3cccc(C(F)(F)F)c3)c(-c3ccsc3)nc2n1	none
COc1ccc(CNC(=O)c2cc3c(=O)n(Cc4ccc(OC)cc4)ccc3nc2C)cc1	none
Cc1nc2ccn(Cc3cccnc3)c(=O)c2cc1C(=O)NCc1ccc(Cl)cc1	ClpP mod 13µM
Cc1nc(Nc2ccc(S(=O)(=O)N3CCCCC3C)cc2)c2nnn(Cc3ccccc3)c2n1 (stereo not drawn)	ClpP mod 32µM
Cc1ccc(NC(=O)Cn2c(=O)n(CCC(=O)N3CCc4ccccc4C3)c(=O)c3ccccc32)c(C)c1	none
CCCCCCCCCCCCCCC[C@@H](O)[C@H](CO)NC(C)=O	none (no result: miR-21 FLuc, TrxR1 substrate, rTrxR1 inhibitor, ClpP mod)
CCOC(=O)C1CCN(Cc2c(O)ccc3ccccc23)CC1	rTrxR1 inhibitor inconclusive, ClpP mod 28µM
O=C(C1CCCO1)N1CCN(Cc2c(O)ccc3ccccc23)CC1 (stereo not drawn)	Anesthetic bind inconclusive, rTrxR1 inhibitor 7.1µM, ClpP mod inconclusive
O=C(O)C1CCN(c2nc(-c3ccccc3)nc3c2oc2ccccc23)CC1	none
Cc1ccc(CN2CCN(C(=O)C3CCCO3)CC2)cc1 (stereo not drawn)	none
CCOC(=O)N1CCN(Cc2c(O)ccc3ccccc23)CC1	rTrxR1 inhibitor 13µM (no result: ClpP mod)
CCOC(=O)C1CCN(c2nc(-c3ccccc3)nc3c2oc2ccccc23)CC1	ClpP mod 32µM
CCOC(=O)C1CCN(Cc2c(O)c3ccccc3oc2=O)CC1	none (no result: ClpP mod)
COc1ccccc1NCc1cccn1-c1nnc(N2CCCCCC2)s1	none
CCOC(=O)N1CCN(Cc2ccc(O)c3ncccc23)CC1	rTrxR1 inhibitor 13µM (no result: ClpP mod)
Oc1ccc(CN2CCCCC2)c2cccnc12	miR-21 FLuc inconclusive
CCOC(=O)c1cc(-c2ccc(C)cc2)n(CCC(=O)Nc2nc3c(C)cccc3s2)c1C	none
CCc1ccc(/C=N/NC(=O)c2cc(C)on2)s1	ClpP mod 2.8µM
COc1cccc(N2CCN(S(=O)(=O)c3cc4c(cc3C)N(C)CCO4)CC2)c1	ClpP mod inconclusive
Cc1cc2c(cc1S(=O)(=O)N1CCN(c3cccc(C)c3C)CC1)OCCN2C	ClpP mod 28µM
Cc1nc(CC(=O)Nc2cccc(C)c2C)cs1	none
COC(=O)c1nc(NC(=O)c2cc(OC)c(OC)c(OC)c2)n[nH]1	rTrxR1 inhibitor 40µM (no result: ClpP mod)
COc1ccc(-c2nc3ccccc3o2)cc1NC(=O)c1ccc(N2CCC(C)CC2)c([N+](=O)[O-])c1	none
CC(C)C[C@H](NC(=O)OC(C)(C)C)C(=O)N/N=C/C1=Cc2ccccc2OC1C (stereo partly drawn)	ClpP mod 28µM
O=S(=O)(NCCc1ccccc1)c1cccs1	Anesthetic bind inconclusive (no result: ClpP mod)
O=S(=O)(NCc1ccccc1)c1cccs1	Anesthetic bind inconclusive, ClpP mod 14µM
CC(NC(=O)Cn1nc(-c2ccccc2)c2ccccc2c1=O)c1ccccc1 (stereo not drawn)	Anesthetic bind 14µM
Cc1ccc(C)c(CN2C(=O)c3ccccc3S(=O)(=O)c3ccc(C(=O)N4CCCCC4)cc32)c1	Anesthetic bind inconclusive
Cc1ccc(S(=O)(=O)N2CCN(C(=O)COC(=O)CSc3cc(C)ccc3C)CC2)c(C)c1	none (no result: miR-21 FLuc, Anesthetic bind)
Cc1ccc(S(=O)(=O)N2CCN(C(=O)COC(=O)C3CCC3)CC2)c(C)c1	ClpP mod 25µM (no result: miR-21 FLuc, Anesthetic bind)
Cc1cc(C)c(S(=O)(=O)NCc2csc(-c3ccccc3)n2)c(C)c1	none
COc1cc(/C=C/C(=O)c2c(O)cc(C)oc2=O)cc(OC)c1O	rTrxR1 inhibitor inconclusive, ClpP mod 28µM
COc1cccc(/C=C/C(=O)c2c(O)cc(C)oc2=O)c1O	rTrxR1 inhibitor inconclusive
COc1cc(/C=C/C(=O)c2c(O)ccc3c(C)cc(=O)oc23)ccc1O	Anesthetic bind inconclusive, rTrxR1 inhibitor inconclusive, ClpP mod 28µM!
Cc1cccc(NC(=O)C(=O)NCCc2sc(-c3ccccc3)nc2C)c1C	none
Cn1c(=O)n(Cc2ccccc2)c(=O)c2c1nc1n2CCCN1Cc1ccccc1	none
